Consider one compound from publication PMC3345099 (Journal of Immunology (Baltimore, Md. : 1950), 2012).

The target of the assay is HLA A*11:01 (purified MHC class I) (Homo sapiens, UniProt P04439, A114D/D185E/E176A/F33Y/L180Q/S129P/T187R). As to the kind of experiment: In vitro radiolabeled competitive HLA binding assay.

In the case of `C[C@@H](O)[C@H](NC(=O)[C@@H](N)CCCCN)C(=O)N[C@@H](CO)C(=O)N[C@@H](CCC(=O)O)C(=O)N[C@@H](CCCNC(=N)N)C(=O)N[C@@H](CO)C(=O)N[C@@H](CCC(N)=O)C(=O)N1CCC[C@H]1C(=O)N[C@@H](CCCNC(=N)N)C(=O)O`, the IC50 turned out to be 38 nM.

One may read the IC50 as the concentration that inhibits the measured activity by half. Read a high IC50 as weaker potency.
